Experimental data: ChEMBL document CHEMBL1938302, “Synthesis of novel histamine H4 receptor antagonists” (Bioorg Med Chem Lett, 2012)

How the values were obtained:
[1] = Intrinsic clearance in rat; format: ADME, organism-based; conditions: in vivo
[2] = test system: Rattus norvegicus; test: Clearance in rat at 3 mg/kg, sc; format: ADME, organism-based; design: dose 3 mg/kg, route subcutaneous; conditions: in vivo

**Q.** Which CLint scaled [1] does the source give for `CN1CCN(C(=O)c2cc3cc(Cl)ccc3[nH]2)CC1` [JNJ-7777120] here?
**A.** 968 mL/min/kg

**Q.** What about the CL [2] of the same molecule?
**A.** 968 mL/min/mg
